Source: article PMC5758712 (2018)

Molecular target: T1, UBE2D1 (Homo sapiens (Human), UniProt P51668)
T1 chain: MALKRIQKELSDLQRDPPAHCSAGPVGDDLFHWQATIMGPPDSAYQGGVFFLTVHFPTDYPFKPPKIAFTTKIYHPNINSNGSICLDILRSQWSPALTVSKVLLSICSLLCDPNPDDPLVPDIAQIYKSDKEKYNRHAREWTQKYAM
Test: ITC; UbcH7 cells RING1 fragment, UbcH5A cells whole RBR

B1: HOIP (protein)
chain: QECAVCGWALPHNRMQALTSCECTICPDCFRQHFTIALKEKHITDMVCPACGRPDLTDDTQLLSYFSTLDIQLRESLEPDAYALFHKKLTEGVLMRD
With B1 the Kd was > 50 µM.
